This is an account of results in US6498945B1, “Sonodynamic therapy using an ultrasound sensitizer compound” (Amersham Health AS, priority 1997, dated 2002).

For the data set, the system named is leucocytes (white blood cells). Briefly: Fate in dog blood (confocal scanning microscope, flow cytometry). As to conditions: injected into beagle dogs. A general note: Flow cytometry measures light scatter and fluorescence of single cells or particles in a stream.

Take “Air-exposed-Tetronic-908-conjugated-to-fluorescein Isothiocyanate”: the “effect on leucocyte function” value is on record as “without impacting their function”.
